Only a part is listed here, and it is no random draw. Calls of active or inactive are those of the source. The calls were made as follows: active = hit-call score of the fitted dose curve at least 0.9, where 1 is the maximum; inactive = score below 0.9.
Assay: ATG_PPRE_CIS: Attagene CIS-FACTORIAL HepG2 Assay for human Peroxisome Proliferator-activated Response Element (PPRE) (AID 2282958)
Details: HepG2 PPRE cis-element reporter, Attagene transcription factor profiling; actives raise or lower the signal

Row | SMILES | outcome | AC50
1 | CCOC(=O)C(SP(=S)(OC)OC)c1ccccc1 (stereo unspecified) | inactive | –
2 | c1ccc(OP(Oc2ccccc2)Oc2ccccc2)cc1 | inactive | –
3 | Nc1nc(N)nc(Cl)n1 | inactive | –
4 | CCCCCOC(=O)c1ccccc1C(=O)OCCCCC | inactive | –
5 | O=c1nc(O)n(Cl)c(=O)n1Cl | inactive | –
6 | O=S1OC[C@@H]2[C@H](CO1)[C@]1(Cl)C(Cl)=C(Cl)[C@@]2(Cl)C1(Cl)Cl (stereo partly specified) | inactive | –
7 | CNC(=O)O/N=C/C(C)(C)S(C)(=O)=O | inactive | –
8 | CC(C)CP(=S)(S)CC(C)C | inactive | –
9 | Cc1ccc(N=C=O)cc1N=C=O | inactive | –
10 | C1CN2CCN1CC2 | inactive | –
11 | CN(N=O)C(N)=O | inactive | –
12 | CN/C(=N\[N+](=O)[O-])NCc1cnc(Cl)s1 | inactive | –
13 | COc1cc(OC)nc(Sc2cccc(Cl)c2C(=O)O)n1 | – | active: 24.7 µM
14 | Cc1[nH]c(=O)n(C(C)(C)C)c(=O)c1Cl | – | active: 20.7 µM
15 | CC(C)(O)C#N | inactive | –
16 | Cc1ccc(N=CN(C)C=Nc2ccc(C)cc2C)c(C)c1 | inactive | –
17 | Clc1cccc(C(Cl)(Cl)Cl)n1 | inactive | –
18 | CC(Oc1ccc(Cl)cc1Cl)C(=O)O (stereo unspecified) | – | active: 25.8 µM

Row | SMILES | outcome | AC50
19 | O=[N+]([O-])c1ccc(Nc2ccccc2)cc1 | – | active: 86.3 µM
20 | O=c1ccc(=O)[nH][nH]1 | inactive | –
21 | Cc1ccc(N)cc1Cl | inactive | –
22 | Nc1c(Cl)c(F)nc(OCC(=O)O)c1Cl | inactive | –
23 | CCCC=NO | inactive | –
24 | c1ccc(N=Nc2ccccc2)cc1 | – | active: 26.3 µM
25 | [F][Sn]([c]1ccccc1)([c]1ccccc1)[c]1ccccc1 | – | active: 0.0218 µM
26 | Clc1ccc(C(Cl)(Cl)Cl)cc1 | inactive | –
27 | O=C(O)Cc1ccccc1 | inactive | –
28 | CCCCCCC1CCOC1=O (stereo unspecified) | inactive | –
29 | COc1ccc(-c2ccccc2)cc1NNC(=O)OC(C)C | – | active: 16.3 µM
30 | CCOP(OCC)OCC | inactive | –
31 | CCN(CC)C(=O)SCc1ccc(Cl)cc1 | – | active: 33.9 µM
32 | CCCCN(CCCC)N=O | inactive | –
33 | CCOP(=S)(OCC)Oc1nc(Cl)n(C(C)C)n1 | inactive | –
34 | CCC(=O)Nc1ccc(Cl)c(Cl)c1 | inactive | –
35 | O=C1C=CC(=O)C=C1 | inactive | –
36 | CC(C)C1CCC(Cc2ccc(Cl)cc2)C1(O)Cn1cncn1 (stereo unspecified) | inactive | –

Reference: PubChem BioAssay (EPA / NIEHS)
